The values below come from PMC4810223 (Toxins, 2016).

Chains of the proteins cited; added tags and fusions are not shown.
UniProt Q99250, whole entry: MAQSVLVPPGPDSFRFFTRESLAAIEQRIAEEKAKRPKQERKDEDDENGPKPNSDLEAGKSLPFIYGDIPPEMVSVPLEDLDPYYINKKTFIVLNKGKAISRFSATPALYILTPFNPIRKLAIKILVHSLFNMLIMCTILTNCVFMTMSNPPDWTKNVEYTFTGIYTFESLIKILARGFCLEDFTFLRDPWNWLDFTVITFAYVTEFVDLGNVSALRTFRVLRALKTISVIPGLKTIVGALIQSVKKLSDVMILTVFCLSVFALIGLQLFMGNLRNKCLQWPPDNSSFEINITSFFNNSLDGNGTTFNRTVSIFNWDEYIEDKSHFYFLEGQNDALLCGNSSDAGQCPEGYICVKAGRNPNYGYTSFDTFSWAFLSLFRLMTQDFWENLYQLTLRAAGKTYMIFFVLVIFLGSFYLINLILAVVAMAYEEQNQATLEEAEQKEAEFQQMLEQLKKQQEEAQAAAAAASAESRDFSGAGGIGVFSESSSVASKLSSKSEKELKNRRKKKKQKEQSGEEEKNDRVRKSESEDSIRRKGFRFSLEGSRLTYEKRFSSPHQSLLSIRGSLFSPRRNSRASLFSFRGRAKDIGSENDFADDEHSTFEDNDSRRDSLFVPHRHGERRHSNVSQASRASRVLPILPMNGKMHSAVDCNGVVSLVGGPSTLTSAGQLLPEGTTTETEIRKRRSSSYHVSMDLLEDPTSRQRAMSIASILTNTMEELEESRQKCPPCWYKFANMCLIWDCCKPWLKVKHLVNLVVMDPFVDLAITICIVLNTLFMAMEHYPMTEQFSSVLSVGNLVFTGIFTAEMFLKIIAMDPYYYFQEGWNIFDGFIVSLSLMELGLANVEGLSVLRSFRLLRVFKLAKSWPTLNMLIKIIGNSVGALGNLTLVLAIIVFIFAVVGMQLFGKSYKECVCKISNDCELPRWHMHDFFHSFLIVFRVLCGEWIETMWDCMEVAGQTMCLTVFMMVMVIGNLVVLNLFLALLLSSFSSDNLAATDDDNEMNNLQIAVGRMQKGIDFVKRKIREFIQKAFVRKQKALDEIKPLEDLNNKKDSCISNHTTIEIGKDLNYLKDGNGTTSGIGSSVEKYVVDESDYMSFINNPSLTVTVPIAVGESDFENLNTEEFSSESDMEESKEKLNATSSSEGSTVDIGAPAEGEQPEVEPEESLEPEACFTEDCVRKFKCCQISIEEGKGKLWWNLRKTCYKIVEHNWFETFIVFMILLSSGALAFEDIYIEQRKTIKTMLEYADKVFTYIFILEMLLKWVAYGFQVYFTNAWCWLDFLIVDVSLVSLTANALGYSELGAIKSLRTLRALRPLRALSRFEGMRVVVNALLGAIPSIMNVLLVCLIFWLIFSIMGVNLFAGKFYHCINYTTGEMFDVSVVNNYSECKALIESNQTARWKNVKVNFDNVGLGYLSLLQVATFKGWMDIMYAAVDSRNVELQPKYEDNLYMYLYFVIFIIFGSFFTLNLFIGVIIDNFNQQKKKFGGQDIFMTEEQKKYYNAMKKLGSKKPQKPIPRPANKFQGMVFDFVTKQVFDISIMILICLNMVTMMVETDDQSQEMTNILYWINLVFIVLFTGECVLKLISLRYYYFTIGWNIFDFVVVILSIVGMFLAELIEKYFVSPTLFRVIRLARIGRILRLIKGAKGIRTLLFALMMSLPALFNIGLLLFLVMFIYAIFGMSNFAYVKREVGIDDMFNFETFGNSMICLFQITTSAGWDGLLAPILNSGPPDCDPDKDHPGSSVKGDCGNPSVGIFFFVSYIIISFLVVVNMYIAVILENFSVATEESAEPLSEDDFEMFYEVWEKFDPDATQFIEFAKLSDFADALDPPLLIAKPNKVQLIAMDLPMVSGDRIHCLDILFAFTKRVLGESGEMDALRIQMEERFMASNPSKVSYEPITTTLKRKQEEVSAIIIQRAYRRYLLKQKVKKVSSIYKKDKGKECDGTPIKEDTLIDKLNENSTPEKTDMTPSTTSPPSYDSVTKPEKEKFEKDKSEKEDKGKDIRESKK
UniProt Q15858, whole entry: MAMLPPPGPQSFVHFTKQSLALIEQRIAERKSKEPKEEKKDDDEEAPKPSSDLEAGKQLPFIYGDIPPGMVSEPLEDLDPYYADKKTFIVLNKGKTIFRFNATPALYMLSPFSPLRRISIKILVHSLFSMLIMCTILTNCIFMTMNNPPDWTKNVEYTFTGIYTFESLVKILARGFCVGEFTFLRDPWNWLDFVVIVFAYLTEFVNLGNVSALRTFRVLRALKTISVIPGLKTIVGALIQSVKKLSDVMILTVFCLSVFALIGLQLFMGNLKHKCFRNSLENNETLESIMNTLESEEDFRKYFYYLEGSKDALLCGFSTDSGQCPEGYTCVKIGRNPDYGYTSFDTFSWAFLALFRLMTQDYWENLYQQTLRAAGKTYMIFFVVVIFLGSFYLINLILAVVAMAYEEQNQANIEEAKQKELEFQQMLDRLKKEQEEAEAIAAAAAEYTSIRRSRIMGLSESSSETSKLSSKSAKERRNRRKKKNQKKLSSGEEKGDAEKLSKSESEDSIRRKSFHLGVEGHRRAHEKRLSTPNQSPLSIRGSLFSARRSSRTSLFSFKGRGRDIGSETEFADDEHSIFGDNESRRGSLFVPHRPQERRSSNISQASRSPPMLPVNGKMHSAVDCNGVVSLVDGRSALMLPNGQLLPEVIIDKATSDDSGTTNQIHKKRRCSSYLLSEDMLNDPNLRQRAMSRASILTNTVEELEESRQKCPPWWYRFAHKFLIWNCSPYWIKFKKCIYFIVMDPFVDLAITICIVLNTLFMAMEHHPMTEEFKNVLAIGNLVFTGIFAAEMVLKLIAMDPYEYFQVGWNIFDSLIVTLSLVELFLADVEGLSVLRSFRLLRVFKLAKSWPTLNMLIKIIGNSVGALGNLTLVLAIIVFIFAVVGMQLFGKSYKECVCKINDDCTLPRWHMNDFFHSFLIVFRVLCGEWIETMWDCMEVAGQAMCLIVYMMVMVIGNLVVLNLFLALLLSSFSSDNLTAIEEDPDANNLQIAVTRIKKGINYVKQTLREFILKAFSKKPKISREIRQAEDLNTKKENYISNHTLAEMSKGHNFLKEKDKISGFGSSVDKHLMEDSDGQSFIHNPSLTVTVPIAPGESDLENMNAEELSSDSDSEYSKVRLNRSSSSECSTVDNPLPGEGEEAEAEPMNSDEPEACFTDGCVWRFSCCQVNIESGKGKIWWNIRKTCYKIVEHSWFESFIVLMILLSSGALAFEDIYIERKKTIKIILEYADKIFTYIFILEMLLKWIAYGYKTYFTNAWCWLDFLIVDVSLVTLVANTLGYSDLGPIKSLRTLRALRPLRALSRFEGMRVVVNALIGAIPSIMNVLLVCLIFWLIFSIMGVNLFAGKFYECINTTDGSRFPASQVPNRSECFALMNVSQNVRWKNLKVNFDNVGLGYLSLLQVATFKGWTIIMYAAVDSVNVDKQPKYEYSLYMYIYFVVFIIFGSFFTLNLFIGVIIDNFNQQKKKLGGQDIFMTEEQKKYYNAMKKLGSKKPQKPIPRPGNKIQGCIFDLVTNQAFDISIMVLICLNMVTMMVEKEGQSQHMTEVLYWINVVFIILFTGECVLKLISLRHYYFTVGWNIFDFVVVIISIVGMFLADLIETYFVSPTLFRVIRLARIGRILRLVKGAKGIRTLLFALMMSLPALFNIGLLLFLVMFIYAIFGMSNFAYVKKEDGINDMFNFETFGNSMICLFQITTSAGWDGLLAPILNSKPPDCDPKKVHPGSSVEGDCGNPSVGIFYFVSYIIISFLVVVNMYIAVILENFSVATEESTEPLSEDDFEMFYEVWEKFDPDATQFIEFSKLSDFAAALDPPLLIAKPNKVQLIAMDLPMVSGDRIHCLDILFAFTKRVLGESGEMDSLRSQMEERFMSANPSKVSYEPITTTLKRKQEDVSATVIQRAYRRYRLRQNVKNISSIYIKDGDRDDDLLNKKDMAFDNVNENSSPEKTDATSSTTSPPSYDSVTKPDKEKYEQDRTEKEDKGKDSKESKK
UniProt Q9UQD0, whole entry: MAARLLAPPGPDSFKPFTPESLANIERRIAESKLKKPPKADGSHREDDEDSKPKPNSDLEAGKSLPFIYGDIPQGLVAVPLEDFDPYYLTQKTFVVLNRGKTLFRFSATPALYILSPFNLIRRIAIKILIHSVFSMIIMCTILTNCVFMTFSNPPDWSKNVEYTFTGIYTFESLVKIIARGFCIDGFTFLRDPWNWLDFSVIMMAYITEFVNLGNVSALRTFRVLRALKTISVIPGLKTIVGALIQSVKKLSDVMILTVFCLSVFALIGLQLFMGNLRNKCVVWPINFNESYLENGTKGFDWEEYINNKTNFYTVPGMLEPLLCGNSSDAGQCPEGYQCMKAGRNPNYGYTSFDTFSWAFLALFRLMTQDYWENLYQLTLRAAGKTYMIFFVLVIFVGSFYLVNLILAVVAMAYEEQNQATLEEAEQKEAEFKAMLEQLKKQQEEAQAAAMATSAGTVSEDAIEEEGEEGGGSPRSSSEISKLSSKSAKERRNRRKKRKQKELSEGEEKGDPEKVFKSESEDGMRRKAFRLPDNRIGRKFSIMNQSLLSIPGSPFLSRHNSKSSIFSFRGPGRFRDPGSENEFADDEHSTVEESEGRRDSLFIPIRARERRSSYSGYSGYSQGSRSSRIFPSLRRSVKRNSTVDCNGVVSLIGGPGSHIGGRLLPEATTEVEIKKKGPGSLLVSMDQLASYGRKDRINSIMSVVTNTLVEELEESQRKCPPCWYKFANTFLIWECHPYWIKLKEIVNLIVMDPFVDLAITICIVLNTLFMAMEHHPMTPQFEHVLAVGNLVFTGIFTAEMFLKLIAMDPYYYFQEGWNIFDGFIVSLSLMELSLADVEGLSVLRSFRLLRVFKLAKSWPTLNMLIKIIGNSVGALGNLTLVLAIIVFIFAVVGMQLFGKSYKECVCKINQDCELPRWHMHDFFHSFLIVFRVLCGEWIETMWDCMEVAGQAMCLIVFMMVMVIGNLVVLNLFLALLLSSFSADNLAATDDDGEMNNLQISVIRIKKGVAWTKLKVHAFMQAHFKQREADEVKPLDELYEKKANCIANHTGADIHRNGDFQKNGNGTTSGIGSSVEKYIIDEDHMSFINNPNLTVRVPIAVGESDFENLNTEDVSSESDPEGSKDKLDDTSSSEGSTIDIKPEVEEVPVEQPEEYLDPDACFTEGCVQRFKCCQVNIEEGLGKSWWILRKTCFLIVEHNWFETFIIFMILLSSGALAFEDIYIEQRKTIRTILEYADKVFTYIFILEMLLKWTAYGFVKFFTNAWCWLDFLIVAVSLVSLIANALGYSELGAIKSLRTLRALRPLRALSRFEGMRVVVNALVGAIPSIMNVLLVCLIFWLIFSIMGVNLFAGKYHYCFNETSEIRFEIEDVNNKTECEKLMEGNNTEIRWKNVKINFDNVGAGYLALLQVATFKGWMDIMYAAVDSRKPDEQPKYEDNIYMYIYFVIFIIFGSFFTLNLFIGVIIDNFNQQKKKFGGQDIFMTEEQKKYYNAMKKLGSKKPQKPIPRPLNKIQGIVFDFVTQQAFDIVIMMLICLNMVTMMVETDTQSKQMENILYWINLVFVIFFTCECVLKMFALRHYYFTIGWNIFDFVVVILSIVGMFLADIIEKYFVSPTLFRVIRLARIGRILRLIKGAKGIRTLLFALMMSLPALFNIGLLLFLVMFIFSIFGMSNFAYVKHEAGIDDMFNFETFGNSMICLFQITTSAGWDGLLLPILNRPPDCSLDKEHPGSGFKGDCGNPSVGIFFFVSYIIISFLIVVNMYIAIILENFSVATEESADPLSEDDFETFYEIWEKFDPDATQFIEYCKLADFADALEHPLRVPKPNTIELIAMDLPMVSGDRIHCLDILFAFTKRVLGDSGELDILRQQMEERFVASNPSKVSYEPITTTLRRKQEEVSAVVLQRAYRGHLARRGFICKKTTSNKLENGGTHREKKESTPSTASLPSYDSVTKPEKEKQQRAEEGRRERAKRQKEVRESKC

Data set [1] has as its target hNaV1.2 (Homo sapiens, UniProt Q99250). As to the kind of experiment: FLIPR membrane potential assay, HEK 293 cells expressing hNaV1.2.
Data set [2] is described as follows: Solubility in phosphate-buffered saline. The settings on record: diluted in phosphate-buffered saline/10% DMSO.
For data set [3], the system named is mouse and human NaV1.7. The settings on record: cited from earlier work.
Data set [4] deals with hNaV1.7 (Homo sapiens, UniProt Q15858). Put plainly: FLIPR membrane potential assay, HEK 293 cells expressing hNaV1.7. Type of data set: cell-based. As to conditions: HEK cells expressing Nav1.7; GpTx-1 100 μM, PF-04856264 10 μM, CNV1014802 100 μM; Figure S1.
In data set [5] the test system is mice. As to the kind of experiment: Motor performance, Parallel Rod Floor Test. The settings on record: 30 mg/kg i.p.; control 1.49 ± 0.16 m.
For data set [6], the target named is hNaV1.1 (Homo sapiens, UniProt P35498). Put plainly: FLIPR membrane potential assay, HEK 293 cells expressing hNaV1.1.
The target of data set [7] is hNaV1.6 (Homo sapiens, UniProt Q9UQD0). As to the kind of experiment: FLIPR membrane potential assay, HEK 293 cells expressing hNaV1.6.

As a reminder, the IC50 is the concentration at which inhibition is half-maximal. As for `Cn1nccc1-c1ccccc1Oc1ccc(S(=O)(=O)Nc2nccs2)cc1C#N`, the concentration for half-maximal inhibition (IC50) in data set [1] (read-out: IC50 at hNaV1.2, veratridine 60 μM) amounted to 20 µM; in data set [6] (read-out: IC50 at hNaV1.1, veratridine 60 μM), 247 µM; in data set [7] (read-out: IC50 at hNaV1.6, veratridine 60 μM) it was 309 µM. For the same compound, the “pIC50 ± SEM at hNaV1.2” value in data set [1] (three independent experiments) is listed as 4.87 ± 0.3. Further, the solubility entry in data set [2] is recorded as “poor solubility”. In data set [3], the “potency at mouse versus human NaV1.7” value was “equipotent”. The “effect on veratridine-induced response (sample trace)” value in data set [4] was “inhibited”. This compound yielded a distance travelled in data set [5] of 1.03 ± 0.17 m. Besides, in data set [6] (three independent experiments), the “pIC50 ± SEM at hNaV1.1” value is listed as 3.61 ± 0.1. In data set [7] (three independent experiments), the “pIC50 ± SEM at hNaV1.6” value came to 3.53 ± 0.1.
